# Results reported in PubChem BioAssay AID493130 (Broad Institute, 2011).
# The entries are a selection whose mix differs from that of the whole data set. Records with an inconclusive call do not appear. Active and inactive are the calls of the source.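 How the source made its calls: active means signal-lowering compounds whose fitted half-maximal concentration is at most ten times their highest tested dose; inconclusive means flat fit between -30 and -70%, or poor fit; inactive means flat within 30%, signal rising, or potency beyond limit.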
# Molecular target: POS-1 (Caenorhabditis elegans) binding to mex-3 RNA
# Test: C. elegans POS-1 RNA interaction disruptors – biochemical, fluorescence polarization, cherry-picked samples, set 2, counter-screen for MEX-5 RNA-binding inhibitor project, dose response (AID 493130);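 further: POS-1 as maltose binding protein fusion made in E. coli with FITC RNA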
# Settings: POS-1/mex-3 RNA fluorescence polarization, 1 h; at 10 µM (top of the series)
smiles,measurement,value
Nc1cccc2c([As](=O)(O)O)cccc12,"activity change, negative = inhibition",inactive
